By UniProt entry, the sequences of proteins in these tests, tags left out. Where a name states a change or a piece, a line headed by the entry shows the natural chain unless it says otherwise. Residues count along the entry.
UniProt O75116, 92-354, species assumed: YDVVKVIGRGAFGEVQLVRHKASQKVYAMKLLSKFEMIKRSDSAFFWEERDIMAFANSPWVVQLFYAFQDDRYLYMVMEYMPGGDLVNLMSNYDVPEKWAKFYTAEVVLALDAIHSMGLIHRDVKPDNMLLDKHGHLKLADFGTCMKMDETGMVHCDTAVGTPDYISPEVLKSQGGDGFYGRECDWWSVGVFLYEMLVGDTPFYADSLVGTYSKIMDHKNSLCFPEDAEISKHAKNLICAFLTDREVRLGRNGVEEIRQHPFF
UniProt P43490: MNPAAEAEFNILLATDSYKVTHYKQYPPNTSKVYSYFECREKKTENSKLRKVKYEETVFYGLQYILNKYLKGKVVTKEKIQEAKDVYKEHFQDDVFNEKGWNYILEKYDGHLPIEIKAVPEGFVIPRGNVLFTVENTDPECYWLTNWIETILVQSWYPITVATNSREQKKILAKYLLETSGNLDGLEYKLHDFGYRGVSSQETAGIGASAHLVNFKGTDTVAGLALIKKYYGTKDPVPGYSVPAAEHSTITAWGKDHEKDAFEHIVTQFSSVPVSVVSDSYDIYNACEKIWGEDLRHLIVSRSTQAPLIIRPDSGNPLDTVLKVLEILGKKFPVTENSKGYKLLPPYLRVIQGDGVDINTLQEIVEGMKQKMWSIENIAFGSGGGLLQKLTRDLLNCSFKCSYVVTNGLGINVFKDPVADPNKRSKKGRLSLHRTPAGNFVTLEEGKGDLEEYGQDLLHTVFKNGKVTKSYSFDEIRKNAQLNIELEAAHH

One experiment concerns collagen-induced arthritis.
Test: not given
The following applies: in vivo; cited from earlier work.
Turning to `O=C(/C=C/c1cccnc1)NCCCCC1CCN(C(=O)c2ccccc2)CC1` [FK866], the “efficacy in animal models of arthritis” value is recorded as “efficacious”.

For another experiment, the system named is experimental autoimmune encephalomyelitis (EAE).
Test: not given
The following applies: in vivo; cited from earlier work.
With `O=C(/C=C/c1cccnc1)NCCCCC1CCN(C(=O)c2ccccc2)CC1` [FK866], the “manifestations of experimental autoimmune encephalomyelitis” value is listed as “ameliorated the manifestations”.

The target of the next experiment is ROCK2 (Homo sapiens (Human), UniProt O75116).
Test: not given
The following applies: read-out: ROCK2 HTRF Binding Ki.
In the case of `O=C(Nc1ccc(-c2n[nH]c(=O)c3ccccc23)cc1)N1Cc2ccccc2C1` [Example 374, N-[4-(4-oxo-3,4-dihydrophthalazin-1-yl)phenyl]-1,3-dihydro-2H-isoindole-2-carboxamide], the Ki is 3.6 nM.

Take `O=C(Nc1ccc(-c2cncc3ccccc23)cc1)N1Cc2ccccc2C1` [Example 375, N-[4-(isoquinolin-4-yl)phenyl]-1,3-dihydro-2H-isoindole-2-carboxamide]: the Ki is 4060 nM.

Take `O=C(Nc1ccc(-c2c[nH]c(=O)c3ccccc23)cc1)N1Cc2ccccc2C1` [Example 376, N-[4-(1-oxo-1,2-dihydroisoquinolin-4-yl)phenyl]-1,3-dihydro-2H-isoindole-2-carboxamide]: the Ki was 5.26 nM.

`O=C(Nc1ccc(-c2n[nH]c(=O)c3c2CCCC3)cc1)N1Cc2ccccc2C1` [Example 377, N-[4-(4-oxo-3,4,5,6,7,8-hexahydrophthalazin-1-yl)phenyl]-1,3-dihydro-2H-isoindole-2-carboxamide]: the Ki stood at 19.5 nM.

On to `O=C(Nc1ccc(-c2n[nH]c(=O)c3cccc(F)c23)cc1)N1Cc2ccccc2C1` [Example 378, N-[4-(8-fluoro-4-oxo-3,4-dihydrophthalazin-1-yl)phenyl]-1,3-dihydro-2H-isoindole-2-carboxamide], for which the Ki is 2.37 nM.

As to `O=C(Nc1ccc(-c2n[nH]c(=O)c3ccccc23)cc1)N1Cc2ccc(CN3CCCC3)cc2C1` [Example 380, N-[4-(4-oxo-3,4-dihydrophthalazin-1-yl)phenyl]-5-(pyrrolidin-1-ylmethyl)-1,3-dihydro-2H-isoindole-2-carboxamide], the Ki was 2.3 nM.

Regarding `O=C(Nc1ccc(-c2c[nH]c(=O)c3ccccc23)cc1)N1Cc2ccc(CN3CCOCC3)cc2C1` [Example 381, 5-(morpholin-4-ylmethyl)-N-[4-(1-oxo-1,2-dihydroisoquinolin-4-yl)phenyl]-1,3-dihydro-2H-isoindole-2-carboxamide], the Ki was determined as 4.12 nM.

For `COc1ccc2c(c1)CN(C(=O)Nc1ccc(-c3c[nH]c(=O)c4ccccc34)cc1)C2` [Example 382, 5-methoxy-N-[4-(1-oxo-1,2-dihydroisoquinolin-4-yl)phenyl]-1,3-dihydro-2H-isoindole-2-carboxamide], the Ki was 6.14 nM.

As to `CN1CCN(Cc2ccc3c(c2)CN(C(=O)Nc2ccc(-c4n[nH]c(=O)c5ccccc45)cc2)C3)CC1` [Example 383, 5-[(4-methylpiperazin-1-yl)methyl]-N-[4-(4-oxo-3,4-dihydrophthalazin-1-yl)phenyl]-1,3-dihydro-2H-isoindole-2-carboxamide], the Ki was determined as 3.61 nM.

Consider `N#Cc1ccc2c(c1)CN(C(=O)Nc1ccc(-c3c[nH]c(=O)c4ccccc34)cc1)C2` [Example 384, 5-cyano-N-[4-(1-oxo-1,2-dihydroisoquinolin-4-yl)phenyl]-1,3-dihydro-2H-isoindole-2-carboxamide], for which the Ki came out at 4.24 nM.

On to `O=C(Nc1ccc(-c2c[nH]c(=O)c3ccccc23)cc1)N1Cc2ccc(Cl)cc2C1` [Example 385, 5-chloro-N-[4-(1-oxo-1,2-dihydroisoquinolin-4-yl)phenyl]-1,3-dihydro-2H-isoindole-2-carboxamide], for which the Ki was 6.51 nM.

Consider `O=C1Cc2ccccc2C(c2ccc(NC(=O)N3Cc4ccccc4C3)cc2)=NN1` [Example 386, N-[4-(4-oxo-4,5-dihydro-3H-2,3-benzodiazepin-1-yl)phenyl]-1,3-dihydro-2H-isoindole-2-carboxamide], for which the Ki came to 10000 nM.

As for `O=C(Nc1ccc(-c2c[nH]c(=O)c3ccccc23)cc1)N1Cc2ccc(CN3CCCC3)cc2C1` [Example 387, N-[4-(1-oxo-1,2-dihydroisoquinolin-4-yl)phenyl]-5-(pyrrolidin-1-ylmethyl)-1,3-dihydro-2H-isoindole-2-carboxamide], the Ki stood at 1.39 nM.

With `O=C(Nc1ccc(-c2n[nH]c(=O)c3cccc(C(F)(F)F)c23)cc1)N1Cc2ccccc2C1` [Example 388, N-{4-[4-oxo-8-(trifluoromethyl)-3,4-dihydrophthalazin-1-yl]phenyl}-1,3-dihydro-2H-isoindole-2-carboxamide], the Ki came out at 11.2 nM.

Turning to `CN(C)Cc1ccc2c(c1)CN(C(=O)Nc1ccc(-c3c[nH]c(=O)c4ccccc34)cc1)C2` [Example 389, 5-[(dimethylamino)methyl]-N-[4-(1-oxo-1,2-dihydroisoquinolin-4-yl)phenyl]-1,3-dihydro-2H-isoindole-2-carboxamide], the Ki was 1.74 nM.

For the molecule `CCN(CC)Cc1ccc2c(c1)CN(C(=O)Nc1ccc(-c3c[nH]c(=O)c4ccccc34)cc1)C2` [Example 390, 5-[(diethylamino)methyl]-N-[4-(1-oxo-1,2-dihydroisoquinolin-4-yl)phenyl]-1,3-dihydro-2H-isoindole-2-carboxamide], the Ki stood at 2.45 nM.

As to `CN1CCN(Cc2ccc3c(c2)CN(C(=O)Nc2ccc(-c4c[nH]c(=O)c5ccccc45)cc2)C3)CC1` [Example 391, 5-[(4-methylpiperazin-1-yl)methyl]-N-[4-(1-oxo-1,2-dihydroisoquinolin-4-yl)phenyl]-1,3-dihydro-2H-isoindole-2-carboxamide], the Ki is 0.49 nM.

As for `O=C(Nc1ccc(-c2n[nH]c(=O)c3cccc(C(F)(F)F)c23)cc1)N1Cc2ccc(CN3CCCC3)cc2C1` [Example 394, N-{4-[4-oxo-8-(trifluoromethyl)-3,4-dihydrophthalazin-1-yl]phenyl}-5-(pyrrolidin-1-ylmethyl)-1,3-dihydro-2H-isoindole-2-carboxamide], the Ki turned out to be 9.3 nM.

Regarding `CN1CCC(Oc2ccc3c(c2)CN(C(=O)Nc2ccc(-c4n[nH]c(=O)c5ccccc45)cc2)C3)CC1` [Example 395, 5-[(1-methylpiperidin-4-yl)oxy]-N-[4-(4-oxo-3,4-dihydrophthalazin-1-yl)phenyl]-1,3-dihydro-2H-isoindole-2-carboxamide], the Ki worked out at 32.1 nM.

Consider `O=C(Nc1ccc(-c2n[nH]c(=O)c3ccccc23)cc1)N1Cc2ccc(CN3CC[C@@H](F)C3)cc2C1` [Example 396, 5-{[(3R)-3-fluoropyrrolidin-1-yl]methyl}-N-[4-(4-oxo-3,4-dihydrophthalazin-1-yl)phenyl]-1,3-dihydro-2H-isoindole-2-carboxamide], for which the Ki worked out at 182 nM.

With `O=C(Nc1ccc(-c2n[nH]c(=O)c3ccccc23)cc1)N1Cc2ccc(CN3CC[C@H](F)C3)cc2C1` [Example 397, 5-{[(3S)-3-fluoropyrrolidin-1-yl]methyl}-N-[4-(4-oxo-3,4-dihydrophthalazin-1-yl)phenyl]-1,3-dihydro-2H-isoindole-2-carboxamide], the Ki turned out to be 138 nM.

With `O=C(Nc1ccc(-c2n[nH]c(=O)c3ccccc23)cc1)N1Cc2ccc(CN3CCC3)cc2C1` [Example 398, 5-(azetidin-1-ylmethyl)-N-[4-(4-oxo-3,4-dihydrophthalazin-1-yl)phenyl]-1,3-dihydro-2H-isoindole-2-carboxamide], the Ki was 2.2 nM.

As for `O=C(Nc1ccc(-c2n[nH]c(=O)c3cccn23)cc1)N1Cc2ccc(CN3CCCC3)cc2C1` [Example 400, N-[4-(1-oxo-1,2-dihydropyrrolo[1,2-d][1,2,4]triazin-4-yl)phenyl]-5-(pyrrolidin-1-ylmethyl)-1,3-dihydro-2H-isoindole-2-carboxamide], the Ki was 25.1 nM.

With `O=C1NCc2c1cccc2-c1ccc(NC(=O)N2Cc3ccccc3C2)cc1` [Example 547, N-[4-(1-oxo-2,3-dihydro-1H-isoindol-4-yl)phenyl]-1,3-dihydro-2H-isoindole-2-carboxamide], the Ki is 179 nM.

As to `O=C(Nc1ccc(-c2n[nH]c(=O)c3ccccc23)cc1)N1Cc2ccncc2C1` [Example 548, N-[4-(4-oxo-3,4-dihydrophthalazin-1-yl)phenyl]-1,3-dihydro-2H-pyrrolo[3,4-c]pyridine-2-carboxamide], the Ki came to 14 nM.

For `O=C(Nc1ccc(-c2n[nH]c(=O)c3ccccc23)cc1)N1Cc2cccnc2C1` [Example 549, N-[4-(4-oxo-3,4-dihydrophthalazin-1-yl)phenyl]-5,7-dihydro-6H-pyrrolo[3,4-b]pyridine-6-carboxamide], the Ki was 3.1 nM.

As to `O=C(NC1CC=C(c2c[nH]c(=O)c3ccccc23)CC1)N1Cc2ccccc2C1` (centres unmarked) [Example 550, N-[4-(1-oxo-1,2-dihydroisoquinolin-4-yl)cyclohex-3-en-1-yl]-1,3-dihydro-2H-isoindole-2-carboxamide], the Ki stood at 15.4 nM.

`O=C(NC1CC=C(c2n[nH]c(=O)c3ccccc23)CC1)N1Cc2ccccc2C1` (centres unmarked) [Example 551, N-[4-(4-oxo-3,4-dihydrophthalazin-1-yl)cyclohex-3-en-1-yl]-1,3-dihydro-2H-isoindole-2-carboxamide]: the Ki amounted to 18.4 nM.

As to `O=C(NC1CC=C(c2n[nH]c(=O)c3ccccc23)CC1)N1Cc2ccc(CN3CCCC3)cc2C1` (centres unmarked) [Example 552, N-[4-(4-oxo-3,4-dihydrophthalazin-1-yl)cyclohex-3-en-1-yl]-5-(pyrrolidin-1-ylmethyl)-1,3-dihydro-2H-isoindole-2-carboxamide], the Ki was 3270 nM.

The next experiment concerns the target NAMPT (Homo sapiens (Human), UniProt P43490). In words: biochemical.
Conditions: not given
`O=C(CC12CC3CC(CC(C3)C1)C2)N1CC(Oc2ccc(NC(=O)N3Cc4ccncc4C3)cc2)C1` [Example 1044] returned an IC50 of 6.21 nM.

The values are drawn from US9302989B2 (priority 2010, dated 2016).
